Assay results: PubChem BioAssay AID651747 (Johns Hopkins Ion Channel Center, 2012)
The list shows a part of the results, in another mix than the full data. The source made the active and inactive calls.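 Rule for the calls: active = thallium flux ratio, averaged over three wells, more than 5 SD below the buffer control mean; inactive = the rest.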

Assay: thallium flux inhibition in non-induced cells, primary screen, counter-screen for KCNK3 inhibitor project, cell-based, non-induced KCNK3 line, FluxOR thallium, triplicate (AID 651747);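 note: host cells are CHO cells without KCNK3 induction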
Conditions: non-induced KCNK3 parental cells, at 10 µM

Compound	outcome
CC(C)(C)OC(=O)N1CCC(N(C(=O)c2ccccc2)c2ccc(F)cc2)CC1	inactive
Cc1cc(C)cc(N(C(=O)c2ccccc2)C2CCN(C(=O)OC(C)(C)C)CC2)c1	inactive
CC(C)(C)OC(=O)N1CCC(N(C(=O)c2ccccc2)c2ccc(Cl)cc2)CC1	inactive
